Results: US10927111B2, “Inhibitors of RAF kinases” (Kinnate Biopharma Inc., priority 2019, dated 2021)

Protein sequences, listed by entry. Tags and fused reporters are not part of them.
UniProt P04049, whole entry: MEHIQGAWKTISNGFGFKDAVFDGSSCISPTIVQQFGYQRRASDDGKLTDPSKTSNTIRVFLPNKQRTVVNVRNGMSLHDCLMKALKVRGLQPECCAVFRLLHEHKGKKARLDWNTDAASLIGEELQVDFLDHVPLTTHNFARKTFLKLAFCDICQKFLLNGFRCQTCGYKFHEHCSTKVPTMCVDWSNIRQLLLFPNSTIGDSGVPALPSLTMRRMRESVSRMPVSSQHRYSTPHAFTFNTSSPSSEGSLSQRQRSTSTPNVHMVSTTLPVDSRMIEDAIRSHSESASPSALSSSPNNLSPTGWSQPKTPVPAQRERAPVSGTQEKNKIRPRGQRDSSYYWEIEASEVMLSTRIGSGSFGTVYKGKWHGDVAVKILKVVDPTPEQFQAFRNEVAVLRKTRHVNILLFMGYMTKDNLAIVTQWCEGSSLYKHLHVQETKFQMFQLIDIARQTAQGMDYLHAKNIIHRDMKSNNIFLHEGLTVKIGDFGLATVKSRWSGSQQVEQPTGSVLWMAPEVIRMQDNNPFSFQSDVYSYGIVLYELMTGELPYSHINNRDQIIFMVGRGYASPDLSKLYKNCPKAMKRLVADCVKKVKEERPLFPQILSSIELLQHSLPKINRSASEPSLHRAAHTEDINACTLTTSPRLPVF

Target: human RAF1 (Homo sapiens (Human), UniProt P04049)
Experiment: Protein kinase assay (radiometric 33P-ATP, MEK1 (K97R) substrate)
Details: read-out: RAF-1 IC50; human MEK1 (K97R) substrate 3 micromolar, ATP 10 micromolar, 10-dose IC50 mode
Procedure: Protein kinase assay: Assay platform was used to measure kinase/inhibitor interactions as described previously (Anastassiadis et al., 2011). In brief, for each reaction, kinase and substrate were mixed in a buffer containing 20 mM HEPES (pH 7.5), 10 mM MgCl2, 1 mM EGTA, 0.02% Brij35, 0.02 mg/mL BSA, 0.1 mM Na3VO4, 2 mM DTT, and 1% DMSO. All compounds were solubilized in DMSO. Compounds were then added to each reaction mixture via acoustic dispense using an ECHO 550 nanoliter dispenser. For human RAF1 testing, human MEK1 (K97R) was used as a substrate at a concentration of 3 micromolar, with a final ATP concentration of 10 micromolar. For human BRAF testing, human MEK1 (K97R) was used as a substrate at 1 micromolar concentration, with a final ATP concentration of 25 micromolar. Compounds were tested in 10-dose IC50 mode with a 3-fold serial dilution starting at 10 micromolar. After a 20-min incubation, ATP (Sigma-Aldrich, St. Louis, Mo. 63178) and [g33P] ATP (specific activity 10 microCi/microliter) purchased at PerkinElmer (Boston, Mass., 02118 Cat #BLU 003H250UC) were added at a final total concentration of 10 mM. […] The percent remaining kinase activity relative to a vehicle-containing (DMSO) kinase reaction was calculated for each kinase/inhibitor pair. IC50 values were calculated using Prism 5 (GraphPad).

pIC50: > 8.00
Compound: CNc1ncc2cc(-c3cc(NC(=O)N4CC[C@H](OC(F)(F)F)C4)c(F)cc3C)c(C)nc2n1

pIC50: −log10 of the molar value.
